Measurements: ChEMBL document CHEMBL3832547, “Goodman and Gilman Ed. 12 | The Pharmaceutical Basis of Therapeutics| Table AII-I: Pharmacokinetic Data” (2011)

Test: Pharmacokinetic parameters for Letrozole evaluated following single oral administration of Letrozole tablets
Assay type: ADME, organism-based
Set-up: dose 2.5 mg, route oral
Settings: human, in vivo, 2.5 mg, dosed compound id 15, dosed compound name LETROZOLE, gender female, regimen Single dose, tissue Plasma

half-life: 45 h
Compound: N#Cc1ccc(C(c2ccc(C#N)cc2)n2cncn2)cc1 [LETROZOLE]
